Reference: patent US20230227484A1, “PYRIMIDINE COMPOUND AS AXL INHIBITOR” (NANJING CHIA TAI TIANQING PHARMACEUTICAL CO., LTD., priority 2020, published 2023)

Biological target: T1, AXL kinase (Homo sapiens, UniProt P30530)
T1 construct: purchased Carna 08-107
T1 sequence (P30530 473-894 limits assumed): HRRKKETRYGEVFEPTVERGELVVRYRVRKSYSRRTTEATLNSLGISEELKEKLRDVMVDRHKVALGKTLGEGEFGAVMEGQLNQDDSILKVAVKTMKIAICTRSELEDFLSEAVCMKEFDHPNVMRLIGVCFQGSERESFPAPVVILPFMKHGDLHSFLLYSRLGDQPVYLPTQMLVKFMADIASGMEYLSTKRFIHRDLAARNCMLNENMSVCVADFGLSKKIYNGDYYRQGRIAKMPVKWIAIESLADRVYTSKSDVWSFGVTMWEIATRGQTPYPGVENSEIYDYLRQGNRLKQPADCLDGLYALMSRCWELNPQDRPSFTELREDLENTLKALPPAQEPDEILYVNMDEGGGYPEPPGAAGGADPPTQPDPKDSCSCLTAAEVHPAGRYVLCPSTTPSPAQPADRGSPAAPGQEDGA
Experiment: Inhibitory activity of compound against AXL kinase (HTRF KinEASE)
Assay type: biochemical
Details: AXL enzyme (Carna, 08-107), ATP 15 μM; "<" means below detection limit of the test
Method: a) AXL enzyme (Carna, 08-107) configuration and addition: a 1×enzyme buffer (200 μL of Enzymatic buffer kinase 5×, 10 μL of 500 mM MgCl2, 10 μL of 100 mM DTT and 6.26 μL of 2500 nM SEB are added with […] of H2O, and prepared into 1 ml of 1× enzyme buffer) is used. AXL enzyme is diluted from 33.33 ng/uL to 0.027 ng/μL (1.67×, final conc.=0.016 ng/uL), a BioTek (MultiFlo FX) automatic liquid dispenser is used, and 6 μL of enzyme solution having a 1.67-fold final concentration is added respectively to compound wells and positive control wells; and 6 μL of 1×Enzymatic buffer is added to negative control wells. […]
d) Pirparation and addition of detection reagent: Streptavidin-XL665 (Cisbio, 610SAXLG) is diluted with HTRF KinEASE detection buffer (cisbio) from 16.67 μM to 250 nM (4×), and the final concentration is 62.5 nM; TK Antibody-Cryptate (Cisbio) is diluted with HTRF KinEASE detection buffer (cisbio) from 100× to 5×, and the final concentration is 1×; XL665 and Antibody are mixed in equal volume; the mixed solution is added to each well at 10 μL by using the BioTek automatic dispenser, centrifuged at 2500 rpm for 30 s, and reacted at 25° C. for 1 h. After the reaction is completed, the resulting product is detected by a multi-function plate reader HTR1p […]

In the case of `CN1CCN(Cc2ccc(Nc3ncc(Cl)c(Nc4ccccc4S(=O)(=O)N(C)C)n3)cc2)CC1` [Positive drug 2 (TP0903), TP0903, reference compound], the IC50 is reported as 16.4 nM.
